B1: Tumor necrosis factor receptor superfamily member 5 (Homo sapiens), P25942 (parent)
chain: MVRLPLQCVLWGCLLTAVHPEPPTACREKQYLINSQCCSLCQPGQKLVSDCTEFTETECLPCGESEFLDTWNRETHCHQHKYCDPNLGLRVQQKGTSETDTICTCEEGWHCTSEACESCVLHRSCSPGFGVKQIATGVSDTICEPCPVGFFSNVSSAFEKCHPWTSCETKDLVVQQAGTNKTDVVCGPQDRLRALVVIPIIFGILFAILLVLVFIKKVAKKPTNKAPHPKQEPQEINFPDDLPGSNTAAPVQETLHGCQPVTQEDGKESRISVQERQ
partner: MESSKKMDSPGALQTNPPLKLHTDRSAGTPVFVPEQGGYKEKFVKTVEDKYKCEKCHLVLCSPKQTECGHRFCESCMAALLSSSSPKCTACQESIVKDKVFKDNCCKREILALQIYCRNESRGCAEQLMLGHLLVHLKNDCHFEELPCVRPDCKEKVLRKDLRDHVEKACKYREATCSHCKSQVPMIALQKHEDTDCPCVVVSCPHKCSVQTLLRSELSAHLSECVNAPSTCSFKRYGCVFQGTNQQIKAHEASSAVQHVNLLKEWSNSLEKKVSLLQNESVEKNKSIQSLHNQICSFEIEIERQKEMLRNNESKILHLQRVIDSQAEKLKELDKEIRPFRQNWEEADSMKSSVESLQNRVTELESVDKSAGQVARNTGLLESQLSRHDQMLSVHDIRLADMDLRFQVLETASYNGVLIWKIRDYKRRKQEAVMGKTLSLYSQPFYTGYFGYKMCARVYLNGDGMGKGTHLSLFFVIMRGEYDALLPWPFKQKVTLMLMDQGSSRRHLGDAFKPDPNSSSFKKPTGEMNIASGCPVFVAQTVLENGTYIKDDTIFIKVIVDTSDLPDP

Variants of: B1
Settings: with traf3_human TRAF3, Q13114

effect of a mutation on the interaction	Variant
decreasing interaction	MVRLPLQCVLWGCLLTAVHPEPPTACREKQYLINSQCCSLCQPGQKLVSDCTEFTETECLPCGESEFLDTWNRETHCHQHKYCDPNLGLRVQQKGTSETDTICTCEEGWHCTSEACESCVLHRSCSPGFGVKQIATGVSDTICEPCPVGFFSNVSSAFEKCHPWTSCETKDLVVQQAGTNKTDVVCGPQDRLRALVVIPIIFGILFAILLVLVFIKKVAKKPTNKAPHPKQEPQEINFPDDLPGSNTAAPVQEALHGCQPVTQEDGKESRISVQERQ [T254A]

— IntAct's records for PubMed 7527023
